## Antibody variant affinities, Ab-95 light chain, assay 2

The measurements come from Engelhart et al. 2022 (doi:10.1038/s41597-022-01779-4) through the FLAb antibody collection.

Binding partner: SARS-CoV-2 spike HR2 peptide, sequence PDVDLGDISGINAS.

Ab-95 is the parent antibody, in scFv form: VH, then three GGGGS repeats, then VL. The heavy chain is unchanged in all variants.
VH: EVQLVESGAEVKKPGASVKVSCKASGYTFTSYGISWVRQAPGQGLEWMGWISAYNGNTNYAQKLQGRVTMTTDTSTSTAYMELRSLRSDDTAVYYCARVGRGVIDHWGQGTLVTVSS
VL: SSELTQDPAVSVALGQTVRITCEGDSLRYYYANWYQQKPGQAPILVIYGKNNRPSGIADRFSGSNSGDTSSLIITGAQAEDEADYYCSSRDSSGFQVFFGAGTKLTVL

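Phage display of a naive human antibody library on the peptide gave the parent. Variants in AAYL52 differ from the parent at up to three CDR positions; double and triple changes were sampled at random. AlphaSeq pools MATa yeast showing the antibodies with MATalpha yeast showing the peptide. Mating (16 h, 30 °C) was followed by selection of diploids and sequencing of their barcodes. Read counts were normalised to the haploid input and turned into Kd by a linear fit to BCL2-family pairs of known affinity, for each replicate. Each pool was mated in three replicate cultures.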

The parent's light chain CDRs are EGDSLRYYYAN, GKNNRPS, SSRDSSGFQVF; each variant's own CDRs replace them letter for letter.
All variants listed here change L27 of the VL, counted from its first residue.
Affinities are written as log10 Kd with Kd in nM; a lower number is a better binder.
The mean shown is taken over the replicates in which the pair was detected.
"nd" means that the variant was in the library but no mating with the target was seen in any replicate; the authors take this as a sign of poor binding, and no number exists.
Parent in this assay: reference entry 2.31, copy in this library 2.25.
Empty control strains, which show no peptide, gave a signal in 28% of pairings with library AAYL52; the median was 3.91 and 95% of these signals were weaker than 2.90. No background was subtracted.

- EGDSNRYYYAN | GKNNRPM | SSRDSSWFQVF -> 2.79 (1 of 3 replicates)
- EGDSERYYYEN | GKANRPS | SSRDSSGFQVF -> 4.76 (1 of 3 replicates)
- EGDSQRYYYAN | GKNNRPS | SKRDSSLFQVF -> 4.37 (2 of 3 replicates)
- EGDSQRYYYAN | GKNVRPS | SSRDSSGFQVI -> 3.17 (3 of 3 replicates)
- EGDSMRYYYAN | GKNNRPS | SSRDSSGFQVF -> 2.58 (3 of 3 replicates)
- EGDSSRYYYAN | WKNNRPS | SSRDSVGFQVF -> 3.64 (2 of 3 replicates)
- EGDSQRCYYAN | GKNNRQS | SSRDSSGFQVF -> 3.69 (1 of 3 replicates)
- EGDSCRYYYAN | GKNNRPS | SSRFSSGFQEF -> nd (0 of 3 replicates)
- EGDSQRYYYMN | GKNNRPS | SSRDSSGFQEF -> 3.50 (3 of 3 replicates)
- EGDKERYYYAN | GKNNRPS | SSRISSGFQVF -> 3.89 (2 of 3 replicates)
- EGNSWRYYYPN | GKNNRPS | SSRDSSGFQVF -> 3.02 (3 of 3 replicates)
- EGDSARFYYAN | GKTNRPS | SSRDSSGFQVF -> 3.84 (3 of 3 replicates)
- EGDSGRYYYAN | GKNNVPS | RSRDSSGFQVF -> nd (0 of 3 replicates)
- EGDSHRYYYAN | GKNNRPS | SSRVSSGYQVF -> 2.04 (3 of 3 replicates)
- EGDSPRYYYAN | GKNNMPS | SSRDSSGFQVF -> 2.93 (3 of 3 replicates)
- EGDSRRYIQAN | GKNNRPS | SSRDSSGFQVF -> 2.91 (3 of 3 replicates)
- EGDSHVYYYAN | GKNNRPS | SSRDSSFFQVF -> 2.07 (3 of 3 replicates)
- EGDSARYYKAN | GKNNRTS | SSRDSSGFQVF -> 2.12 (2 of 3 replicates)
- EGDSDRYYYAN | SKNNRPS | SSRDSEGFQVF -> 2.94 (1 of 3 replicates)
- EGDSIRYCYAN | GKNNRPS | SSRDSSGFQVF -> 2.82 (3 of 3 replicates)
- EGDSARYYYAN | GKNNRPS | SSGDSSGFWVF -> 4.26 (3 of 3 replicates)
- EGDSHRYYYAN | GKNNRPS | SSRDSSGFQVF -> 3.87 (3 of 3 replicates)
- EGDSSRYYYAN | GKPNRPS | SSKDSSGFQVF -> nd (0 of 3 replicates)
- EGDVIRYYYAN | GGNNRPS | SSRDSSGFQVF -> 3.64 (3 of 3 replicates)
- EGDEWRYYYAN | GKNNRPS | SSRDSSGFQEF -> nd (0 of 3 replicates)
- EGDSYRYYYAN | GKNNRPS | SSTDSSGFQVA -> 3.24 (1 of 3 replicates)
- EGDSDRYYYAN | GKNNRPS | LSRDSVGFQVF -> 4.40 (2 of 3 replicates)
- EGDSFCYYDAN | GKNNRPS | SSRDSSGFQVF -> 2.03 (3 of 3 replicates)
- EGDSMRYYYLN | GKNNRPS | ASRDSSGFQVF -> nd (0 of 3 replicates)
- EGDSWRYYYAN | GKNNRIS | SSRDSSGFQGF -> nd (0 of 3 replicates)
- AGDSHRYYWAN | GKNNRPS | SSRDSSGFQVF -> 3.18 (3 of 3 replicates)
- EGVSQRYYYAN | GKNNRPD | SSRDSSGFQVF -> 2.61 (3 of 3 replicates)
- EGDSPRYYYAN | GKNRRPN | SSRDSSGFQVF -> 3.77 (1 of 3 replicates)
- EGDSYRMYYAN | GKNNRPS | SSRDSSGWQVF -> 3.96 (1 of 3 replicates)
- EGDSWRYYYAN | GKNRRPS | SSRDSSGFAVF -> 3.88 (1 of 3 replicates)
- EGDSDRYYYAN | GKNNRPS | SWDDSSGFQVF -> 2.73 (3 of 3 replicates)
- EGDSWRYYYAN | GKNRRPS | SSRDSSGFQVF -> 3.63 (3 of 3 replicates)
- EGDSSRDYYAN | GKNNRPS | SSFDSSGFQVF -> 3.80 (2 of 3 replicates)
- EGRSMRYYYAN | GKKNRPS | SSRDSSGFQVF -> 4.42 (2 of 3 replicates)
- EGDSARYYHAN | GKNNRPS | SSRDSSDFQVF -> 4.68 (1 of 3 replicates)
- EMDSRRYYYAN | GKNNRPS | SSRDESGFQVF -> 3.22 (2 of 3 replicates)
- EGDYRRYYYAN | GKNNRPS | SSRDSSGFQVT -> 3.70 (2 of 3 replicates)
- ETDSYRYYYAN | GKNNGPS | SSRDSSGFQVF -> nd (0 of 3 replicates)
- EGDSERYYYAN | GKNNRWS | SSRDSSGFQVF -> 4.19 (3 of 3 replicates)
- EGDSMRYYIAN | GKNNRPS | SSRDSSAFQVF -> 3.89 (2 of 3 replicates)
- EGDSQRYYYAN | GKNNRES | SSRDSSHFQVF -> nd (0 of 3 replicates)
- EGDSERYYYNN | GKNNRPS | SSYDSSGFQVF -> 3.61 (1 of 3 replicates)
- EGDSNRYYYAN | GKNIRTS | SSRDSSGFQVF -> nd (0 of 3 replicates)
- EGDSYRYYYAN | GKNNRPS | SSRDSSVTQVF -> 4.46 (2 of 3 replicates)
- EGDSFRYYYAN | GKNNRPS | SSRTSSGFQVF -> 3.31 (3 of 3 replicates)
- EGDSCRYYKAN | GKNNRPS | SSRDSSGFQVF -> 2.93 (3 of 3 replicates)

Picked from the list: the 7 lowest averages where every replicate gave a value.

CDR-L1	CDR-L2	CDR-L3	mean, log10 nM	seen in
EGDSFCYYDAN	GKNNRPS	SSRDSSGFQVF	2.03	3 of 3
EGDSHRYYYAN	GKNNRPS	SSRVSSGYQVF	2.04	3 of 3
EGDSHVYYYAN	GKNNRPS	SSRDSSFFQVF	2.07	3 of 3
EGDSMRYYYAN	GKNNRPS	SSRDSSGFQVF	2.58	3 of 3
EGVSQRYYYAN	GKNNRPD	SSRDSSGFQVF	2.61	3 of 3
EGDSDRYYYAN	GKNNRPS	SWDDSSGFQVF	2.73	3 of 3
EGDSIRYCYAN	GKNNRPS	SSRDSSGFQVF	2.82	3 of 3